Biological target: human μ-opiate receptor (Homo sapiens, UniProt P35372)
Test: μ-binding: displacement of [3H]-naloxone, receptor membrane preparation of CHO-K1 cells
Settings: 1 μM test compound; 1 nmol/l [3H]-naloxone

Protein sequences, listed by entry. Tags and fused reporters are not part of them.
UniProt P35372, whole entry, looked up: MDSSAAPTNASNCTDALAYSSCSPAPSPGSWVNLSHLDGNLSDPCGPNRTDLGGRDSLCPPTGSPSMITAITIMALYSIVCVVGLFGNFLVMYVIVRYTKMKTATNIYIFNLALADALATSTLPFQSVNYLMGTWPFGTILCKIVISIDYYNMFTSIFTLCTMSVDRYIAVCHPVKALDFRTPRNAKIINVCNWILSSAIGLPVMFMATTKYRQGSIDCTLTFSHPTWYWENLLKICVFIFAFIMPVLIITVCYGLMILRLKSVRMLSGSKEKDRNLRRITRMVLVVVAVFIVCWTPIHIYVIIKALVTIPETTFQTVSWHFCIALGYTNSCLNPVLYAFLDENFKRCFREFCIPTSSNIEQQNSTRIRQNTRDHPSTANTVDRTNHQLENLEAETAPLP

Molecule | μ-binding, [1 μM], % inhibition
Cc1ccccc1N1CCN(C(=O)CCCC(=O)NC2CCC(Cc3ccccc3)(N(C)C)CC2)CC1 (centres unmarked) | 59%
Cc1cccc(CC2(N(C)C)CCC(NC(=O)CCC(=O)NCc3ccc(F)cc3C(F)(F)F)CC2)c1 (centres unmarked) | 66%
Cc1ccc(CC2(N(C)C)CCC(NC(=O)CCC(=O)NCCSCc3c(Cl)cccc3Cl)CC2)cc1 (centres unmarked) | 67%
Cc1cccc(CC2(N(C)C)CCC(NC(=O)CCC(=O)NCCc3ccc(Cl)c(Cl)c3)CC2)c1 (centres unmarked) | 77%
CN(C)C1(Cc2cccc(Cl)c2)CCC(NC(=O)CCC(=O)NCc2ccc(F)c(Cl)c2)CC1 (centres unmarked) | 55%
CN(C)C1(Cc2cccc(Cl)c2)CCC(NC(=O)CCC(=O)NCc2cccc(Br)c2)CC1 (centres unmarked) | 67%
CN(C)C1(Cc2cccc(Cl)c2)CCC(NC(=O)CCC(=O)NCCc2ccccc2F)CC1 (centres unmarked) | 59%
Cc1cccc(CC2(N(C)C)CCC(NC(=O)CCC(=O)NCCc3c[nH]c4ccccc34)CC2)c1 (centres unmarked) | 59%
CN(C)C1(Cc2cccc(Cl)c2)CCC(NC(=O)CCC(=O)NCCSCc2ccccc2)CC1 (centres unmarked) | 70%
CN(C)C1(Cc2cccc(Cl)c2)CCC(NC(=O)CCC(=O)NC2CCCc3ccccc32)CC1 (centres unmarked) | 52%
CN(C)C1(Cc2cccc(Cl)c2)CCC(NC(=O)CCC(=O)N2CCC(C(=O)c3ccc(Cl)cc3)CC2)CC1 (centres unmarked) | 51%
CCC(NC(=O)CCC(=O)NC1CCC(Cc2cccc(Cl)c2)(N(C)C)CC1)c1ccccc1 (centres unmarked) | 58%
Cc1cccc(CC2(N(C)C)CCC(NC(=O)CCC(=O)NC3CCc4ccccc43)CC2)c1 (centres unmarked) | 64%
Cc1cccc(CC2(N(C)C)CCC(NC(=O)CCC(=O)NCCc3ccc(F)cc3)CC2)c1 (centres unmarked) | 68%
Glutaric acid-(4-benzyl-4-dimethylamino- cyclohexyl)-amide[2-(3-chloro-phenyl)- ethyl]-amide | 84%
CN(C)C1(Cc2cccc(Cl)c2)CCC(NC(=O)CCC(=O)NC2CCc3ccccc32)CC1 (centres unmarked) | 50%
Cc1ccc(CC2(N(C)C)CCC(NC(=O)CCC(=O)NCCc3ccccc3)CC2)cc1 (centres unmarked) | 66%
CN(C)C1(Cc2cccc(Cl)c2)CCC(NC(=O)CCC(=O)NCCc2cccc(F)c2)CC1 (centres unmarked) | 57%
N-[2-(4-chloro-phenyl)-ethyll-N′-[4- dimethylamino-4-(3-methyl-benzyl)- cyclohexyl]-succinamide | 53%

Molecule | μ-binding, [1 μM], % inhibition
N-[4-dimethylamino-4-(3-methyl-benzyl)- cyclohexyl]-N′-(1-naplithalen-1-yl-ethyl)- succinamide | 65%
Cc1ccc(CC2(N(C)C)CCC(NC(=O)CCC(=O)NCCc3ccc(F)cc3)CC2)cc1 (centres unmarked) | 51%
CN(C)C1(Cc2ccc(Cl)cc2)CCC(NC(=O)CCC(=O)NCCc2ccccc2F)CC1 (centres unmarked) | 67%
Cc1ccc(Cl)cc1N1CCN(C(=O)CCC(=O)NC2CCC(Cc3cccc(Cl)c3)(N(C)C)CC2)CC1 (centres unmarked) | 51%
Cc1ccc(CC2(N(C)C)CCC(NC(=O)CCC(=O)NCCc3ccccc3Cl)CC2)cc1 (centres unmarked) | 67%
CN(C)C1(Cc2cccc(Cl)c2)CCC(NC(=O)CCC(=O)NCCSCc2c(Cl)cccc2Cl)CC1 (centres unmarked) | 57%
CN(C)C1(Cc2cccc(Cl)c2)CCC(NC(=O)CCC(=O)NC2CCCCCCC2)CC1 (centres unmarked) | 50%
Cc1cccc(CC2(N(C)C)CCC(NC(=O)CCC(=O)N(CCO)Cc3ccccc3)CC2)c1 (centres unmarked) | 50%
CC(NC(=O)CCC(=O)NC1CCC(Cc2cccc(Cl)c2)(N(C)C)CC1)c1ccc(F)cc1 (centres unmarked) | 59%
Cc1cccc(CC2(N(C)C)CCC(NC(=O)CCC(=O)NCc3ccccc3F)CC2)c1 (centres unmarked) | 50%
Glutaric acid-(4-benzyl-4-dimethylamino- cyclohexyl)-amide[2-(4-chloro-phenyl)- propyl]-amide | 68%
CN(C)C1(Cc2cccc(Cl)c2)CCC(NC(=O)CCC(=O)N2CCN(c3ccccc3F)CC2)CC1 (centres unmarked) | 73%
Glutaric acid-(4-benzyl-4-dimethylamino- cyclohexyl)-amide[2-(2-fluoro-phenyl)- ethyl]-amide | 68%
CCN(Cc1ccccc1)C(=O)CCC(=O)NC1CCC(Cc2cccc(Cl)c2)(N(C)C)CC1 (centres unmarked) | 61%
Cc1cccc(CC2(N(C)C)CCC(NC(=O)CCC(=O)NC3CCCc4ccccc43)CC2)c1 (centres unmarked) | 58%
CN(CCCNC(=O)CCC(=O)NC1CCC(Cc2cccc(Cl)c2)(N(C)C)CC1)c1ccccc1 (centres unmarked) | 54%
CN(C)C1(Cc2cccc(Cl)c2)CCC(NC(=O)CCC(=O)NCCc2ccccc2Cl)CC1 (centres unmarked) | 80%
Cc1cccc(CC2(N(C)C)CCC(NC(=O)CCC(=O)NCc3ccc(Br)cc3F)CC2)c1 (centres unmarked) | 62%
CN(C)C1(Cc2cccc(Cl)c2)CCC(NC(=O)CCC(=O)NCc2cc(F)cc(F)c2)CC1 (centres unmarked) | 50%

Molecule | μ-binding, [1 μM], % inhibition
Cc1ccc(CC2(N(C)C)CCC(NC(=O)CCC(=O)NCCc3ccccc3F)CC2)cc1 (centres unmarked) | 90%
CN(C)C1(Cc2cccc(Cl)c2)CCC(NC(=O)CCC(=O)NCc2ccc(F)cc2F)CC1 (centres unmarked) | 58%
COc1ccc(N2CCN(C(=O)CCCC(=O)NC3CCC(Cc4ccccc4)(N(C)C)CC3)CC2)c(OC)c1 (centres unmarked) | 58%
CN(C)C1(Cc2cccc(Cl)c2)CCC(NC(=O)CCC(=O)NC(c2ccccc2)c2ccccc2)CC1 (centres unmarked) | 62%
CC(CCc1ccccc1)NC(=O)CCC(=O)NC1CCC(Cc2cccc(Cl)c2)(N(C)C)CC1 (centres unmarked) | 62%
CC(C)CC(C)NC(=O)CCCC(=O)NC1CCC(Cc2ccccc2)(N(C)C)CC1 (centres unmarked) | 56%
CN(C)C1(Cc2ccc(Cl)cc2)CCC(NC(=O)CCC(=O)NC2CCc3ccccc32)CC1 (centres unmarked) | 51%
CCOc1ccccc1CCNC(=O)CCC(=O)NC1CCC(Cc2cccc(C)c2)(N(C)C)CC1 (centres unmarked) | 68%
CN(C)C1(Cc2cccc(Cl)c2)CCC(NC(=O)CCC(=O)N(CCC#N)Cc2ccccc2)CC1 (centres unmarked) | 57%
Cc1cccc(CC2(N(C)C)CCC(NC(=O)CCC(=O)NCCc3cccc(Cl)c3)CC2)c1 (centres unmarked) | 51%
Cc1ccc(C(C)NC(=O)CCC(=O)NC2CCC(Cc3cccc(Cl)c3)(N(C)C)CC2)cc1 (centres unmarked) | 50%
CN(C)C1(Cc2cccc(Cl)c2)CCC(NC(=O)CCC(=O)NCc2ccco2)CC1 (centres unmarked) | 87%
CN(C)C1(Cc2cccc(Cl)c2)CCC(NC(=O)CCC(=O)NCc2ccc(F)cc2)CC1 (centres unmarked) | 64%
COc1ccc(OC)c(CN(Cc2ccco2)C(=O)CCC(=O)NC2CCC(Cc3cccc(Cl)c3)(N(C)C)CC2)c1 (centres unmarked) | 60%
Cc1cccc(CC2(N(C)C)CCC(NC(=O)CCC(=O)NCc3c(C)cccc3Cl)CC2)c1 (centres unmarked) | 54%
Cc1cccc(CC2(N(C)C)CCC(NC(=O)CCC(=O)N3CCN(c4cc(Cl)ccc4C)CC3)CC2)c1 (centres unmarked) | 67%
CN(C)C1(Cc2cccc(Cl)c2)CCC(NC(=O)CCC(=O)NC2Cc3ccccc3C2)CC1 (centres unmarked) | 64%
Cc1cccc(CC2(N(C)C)CCC(NC(=O)CCC(=O)NCCc3c(Cl)cccc3Cl)CC2)c1 (centres unmarked) | 74%

Reference: patent publication US8088763B2 (priority 2004, dated 2012)
